Source: patent US9585879B2, “Heterocyclic GSK-3 allosteric modulators” (Consejo Superior de Investigaciones Cientificas (CSIC), priority 2011, dated 2017)

target: recombinant human GSK3 enzyme (GSK-3β); type: biochemical
Method: Measurement of the Inhibition of GSK-3β
The enzyme inhibition assays were performed using the luminometric methodology of kinase-Glo®. The recombinant human GSK3 enzyme (catalogue no. 14-306) was acquired from Upstate (Dundee, UK). The prephosphorylated polypeptide was synthesised by American Peptide Inc. (Sunnyvale, Calif.). The luminescent kinase kit (catalogue no. V6711) was obtained from Promega. The ATP and the other reagents were purchased from Sigma-Aldrich (St. Louis, Mo.).
The assays were performed in buffer using 96-well plates. 10µl of the compound to be assayed (dissolved in DMSO at a concentration of 1 mM, and, in turn, dissolved in buffer to the concentration necessary for the experiment) and 10µl (20 ng) of the enzyme are added to each well, followed by 20µl of buffer containing 25µM of the substrate and 1µM of ATP. […] Following a half-hour incubation at 30° C., the enzymatic reaction is stopped with 40µl of the kinase-Glo® reagent. The luminescence is measured after ten minutes, using a POLARstar Optima multimode reader. The activity is proportional to the difference between the total ATP and the ATP consumed. The inhibitory activities were calculated as a function of the maximum activity, measured in the absence of inhibitor.

“6-Bromo-N′-dodecanoyl-4-hydroxy-2-oxo-2-hydroquinoline-3-carbohydrazide [Compound 47]” and “6-Chloro-N′-dodecanoyl-4-hydroxy-2-oxo-2-hydroquinoline-3-carbohydrazide [Compound 48]” are within error of each other in IC50: 3.54 ± 0.18 µM for the first, 3.81 ± 0.12 µM for the second.

Going from “6-Fluoro-N′-dodecanoyl-4-hydroxy-2-oxo-2-hydroquinoline-3-carbohydrazide [Compound 17]” to “7-Chloro-N′-dodecanoyl-4-hydroxy-2-oxo-2-hydroquinoline-3-carbohydrazide [Compound 15]”, the IC50 falls from 5.81 ± 0.76 µM to 3.12 ± 0.03 µM (1.9-fold).

With “N′-Dodecanoyl-4-hydroxy-2-oxo-2-hydroquinoline-3-carbohydrazide [Compound 13]” the IC50 was 4.47 ± 0.29 µM.
